Values of other authors, collected in patent publication US20220154183A1, “CHMP2A as a Regulator of Natural Killer Cell-Mediated Activity” (The Regents of the University of California, priority 2019, published 2022).

Tested on: HNSCC

Cetuximab
progression-free survival (HNSCC patients, cetuximab monotherapy): 5.6 months
patients responding (cetuximab as monotherapy): 10-15%
